This data set is described as follows: pH and water solubility of hPTH hexaacetate in solution. It counts as physicochemical. The following applies: mole ratio 1 to 6. An excerpt:
Referring now to FIG. 10, there is shown a superposition of the mole ratios for acetic acid and the neutral form of hPTH(1-34). The pH of a HPTH hexaacetate (mole ratio 1 to 6) in solution is about pH 5. At pH 5, negligible amounts of PTH are present as PTH zero net charge (PTH 0). The PTH is also highly soluble in water at concentrations in excess of 20%. During drying and subsequent storage, the free acetic acid will evaporate inherently resulting in formation of the water insoluble PTH 0. Subsequent reconstitution in water will not allow total solubilization of PTH. Accordingly, the use of a low volatility counterion provides a solid soluble formulation of PTH as long as the pH is maintained at least 2.5 pH units, preferably 3 pH units, below the pI of PTH. Preferably, this can be achieved by providing at least about two low volatility counterions to each molecule of PTH.

“HPTH hexaacetate: hPTH with acetic acid counterion, mole ratio 1 to 6”: the pH in solution was ~5 pH.
